From patent US10280209B2 (YISSUM RESEARCH DEVELOPMENT COMPANY OF THE HEBREW …, priority 2013, dated 2019)

Sequences of proteins named here, by UniProt entry; tags and fusion partners are left off. Residues count along the entry.
UniProt P10747, 19-152: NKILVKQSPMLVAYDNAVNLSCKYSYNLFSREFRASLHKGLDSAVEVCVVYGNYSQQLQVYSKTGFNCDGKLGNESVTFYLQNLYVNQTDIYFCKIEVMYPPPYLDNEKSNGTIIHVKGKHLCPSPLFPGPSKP
UniProt P10747, 19-220: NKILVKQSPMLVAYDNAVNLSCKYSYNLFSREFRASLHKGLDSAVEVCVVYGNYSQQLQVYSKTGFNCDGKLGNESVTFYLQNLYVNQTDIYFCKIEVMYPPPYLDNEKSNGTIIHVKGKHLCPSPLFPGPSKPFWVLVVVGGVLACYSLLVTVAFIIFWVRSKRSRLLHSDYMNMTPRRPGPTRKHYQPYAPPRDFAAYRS

Tests used:
signaling through CD3 = assay: αCD3-induced cytokine expression in human PBMC (ELISA); type: cell-based; settings: αCD3 alone, 10 μg/ml peptide
Description: (§1) Peripheral blood mononuclear cells (PBMC) from healthy human donors were separated on Ficoll Paque (Amersham), washed twice with 50 ml of RPMI 1640 medium, re-suspended at a density of 4×10^6 cells/ml and cultured in this medium supplemented with 2% fetal calf serum, 2 mM glutamine, 10 mM Minimum Essential Medium (MEM) nonspecific amino acids, […], 10 mM Hepes pH 7.2, 5×10^−5 M 2-mercaptoethanol, 100 u/ml penicillin, 100 μg/ml streptomycin and 5 μg/ml nystatin. Mouse anti-human monoclonal antibodies αCD3 (clone UCHT1; 100 ng/ml) and αCD28 (clone 37407; 2.5 μg/ml) (both from R&D Systems) were used as inducers. Cytokines in culture medium were determined with Quantikine ELISA kits (R&D Systems) according to the manufacturer's instructions.

COX-2 = COX-2 immunohistochemistry in jejunum and spleen of irradiated mice; type: in vivo, mouse; settings: 8 Gy, single administration 24 hours after radiation, day 7
human PBMC = assay: Cytokine induction by peptides alone in human PBMC (ELISA); type: cell-based; settings: 10 μg/ml peptide, no inducer
Description: as §1

F4/80-positive cells = assay: Immunohistochemistry of activated macrophage marker F4/80 in mouse jejunum; settings: 8 Gy, 5 mg/kg 24 h after irradiation, day 7
CD28-Fc = CD28-Fc (Homo sapiens, UniProt P10747); assay: Surface plasmon resonance, CD28-Fc on immobilized peptide; type: binding; settings: SPR, 25° C.
human IgG = assay: Surface plasmon resonance, human IgG control on immobilized peptide; type: binding; settings: SPR, studied in parallel
Description: Peptides were diluted to 10-200 μg/ml in 10 mM Sodium (Na) acetate pH 4.0 and immobilized on a CM5 sensor chip (BIAcore) using an amine-thiol coupling kit (BIAcore), respectively; the immobilized amounts were 500-1,000 resonance units. Analytes were injected at 20 μl/min in 25 mM HEPES pH 7.4, 150 mM NaCl, 3.4 mM EDTA, and 0.005% surfactant P20 under conditions showing no mass transport limitation. Regeneration was with 50 mM phosphoric acid. Kinetic analyses were performed at 25° C. in a BIAcore 3000 instrument, deducting the signal from the control flow cell from the binding signal. Analyte curves were run in duplicate; representative results are shown. Human IgG (Jackson Laboratories) served as control. Fusion of the IgG1-Fc domain to the 152-amino-acid extracellular domain of CD28 was performed as described below.

[1] = test system: small intestine (jejunal crypts, villi); assay: Histopathological analysis of small intestine of irradiated mice; type: in vivo, mouse; settings: for number of jejunal crypt microcolonies, RP group / mean villus height, irradiated and peptide-treated: 8 Gy, 5 mg/kg 24 h after irradiation, day 7
IL-6 = assay: Plasma IL-6 in irradiated mice (ELISA); type: in vivo, mouse; settings: for inhibition of plasma IL-6 compared to irradiated mice: 8 Gy, 5 mg/kg IV 24 h after irradiation, day 7
adjuvant arthritis = assay: Adjuvant arthritis model; type: in vivo, rat; settings: rats
cyclin D1 = assay: Cyclin D1 immunohistochemistry in jejunal crypts of irradiated mice; type: in vivo, mouse; settings: BALB/c and A/J, 8 Gy, 5 mg/kg 24 h after irradiation, day 7
fibrinogen = assay: Plasma fibrinogen in irradiated mice (ELISA); type: in vivo, mouse; settings: for plasma fibrinogen as % of fibrinogen levels in irradiated counterparts: 8 Gy, 5 mg/kg IV 24 h after irradiation, day 7
[2] = Pharmacokinetic assay, serum level after IV injection; type: in vivo, mouse; settings: mice
Description: Analysis was performed by reverse phase liquid chromatography with mass spectrometric detection. An Agilent 1100 MSD system with temperature-controlled autosampler was used. The system was calibrated using purified (D-A)-p2TA-(D-A) (molecular weight, 1,037.2 g/mol, Bachem) and blank mouse plasma (Harlan, Israel) as reference.

[3] = test system: collagen-induced arthritis; assay: Collagen-induced arthritis model; type: in vivo, mouse; settings: mice, 10 μg daily from disease onset (days 25-34)
[4] = target: B7-2/CD28 synapse formation (Homo sapiens, UniProt P10747); assay: Intercellular B7-2/CD28 synapse formation by flow cytometry; settings: HEK293T CD28/GFP and B7-2/Cherry cells, 0.1-1 μg/ml peptide
CD28 = target: T1, CD28 (Homo sapiens, UniProt P10747); assay: αCD3/αCD28-induced cytokine expression in human PBMC (ELISA); type: cell-based; settings: αCD3/αCD28, 10 μg/ml peptide
T1 construct: endogenous in cells; host or cells: human PBMC
Description: as §1

## CSCC[C@H](NC(=O)[C@@H]1CCCN1C(=O)[C@H](CO)NC(=O)[C@@H](C)N)C(=O)N[C@@H](CC(C)C)C(=O)N[C@H](C(=O)N[C@@H](C)C(=O)N[C@@H](Cc1ccc(O)cc1)C(=O)N[C@@H](CC(=O)O)C(=O)N[C@H](C)C(=O)O)C(C)C [p2TA]
Signaling through CD3
  αCD3-mediated induction of IFN-γ: did not inhibit
  αCD3-mediated induction of IL2: did not inhibit
  αCD3-mediated induction of TNF-α: did not inhibit
COX-2
  radiation-induced increase in expression of COX-2 in jejunum and spleen: ameliorated
Human PBMC
  Th1 cytokine response induced by peptide alone: do not induce a significant Th1 cytokine response
F4/80-positive cells; A/J, control 1.04, irradiated 3.68
  number of F4/80-positive cells (macrophages) in jejunum, RP group: 1.37 ± 0.68 cells/mm2
F4/80-positive cells; BALB/c, control 3.39, irradiated 6.69
  number of F4/80-positive cells (macrophages) in jejunum, RP group: 0.77 ± 0.31 cells/mm2
CD28-Fc
  apparent KD for binding to CD28-Fc: in the micromolar range
Human IgG
  affinity for IgG: none of the peptides showed affinity for IgG
[1]; A/J, R group 7.8±1.6
  number of jejunal crypt microcolonies, RP group: 12.1±2.1 /μm
[1]; A/J, control 208±45, irradiated 122±22
  mean villus height, irradiated and peptide-treated: 176±42 μm
[1]; BALB/c, R group 6.5±1.3
  number of jejunal crypt microcolonies, RP group: 12.4±3.2 /μm
[1]; BALB/c, control 192±41, irradiated 86±25
  mean villus height, irradiated and peptide-treated: 141±27 μm
[1]; sham-irradiated, 5 mg/kg
  villus height in sham-irradiated mice: little or no effect
IL-6; A/J
  inhibition of plasma IL-6 compared to irradiated mice: 31.8%
IL-6; BALB/c
  inhibition of plasma IL-6 compared to irradiated mice: 40.4%
IL-6; sham-irradiated, 5 mg/kg
  plasma IL-6 levels in sham-irradiated mice: did not affect
Adjuvant arthritis; 100 μg peptide IV on each of days 1-15, monitored through day 29
  cumulative reduction of disease symptoms: 51%
Adjuvant arthritis; IV, dexamethasone daily days 10-15, peptides 100 μg daily days 1-15
  disease symptoms during treatment, up to day 15: did not exhibit inhibition of symptoms
Adjuvant arthritis; two-week period after termination of treatment
  disease symptoms after termination of therapy on day 15: leveled off and even showed a progressive further decline
Cyclin D1
  radiation-induced decline in numbers of cyclin D1 positive cells: negligible
fibrinogen; A/J
  plasma fibrinogen as % of fibrinogen levels in irradiated counterparts: 62.9%
fibrinogen; BALB/c
  plasma fibrinogen as % of fibrinogen levels in irradiated counterparts: 67.5%
fibrinogen; sham-irradiated, 5 mg/kg
  plasma fibrinogen levels in sham-irradiated mice: did not affect fibrinogen levels significantly
[2]
  time after injection at which peptide was detected in serum: 1 min
  time after injection by which peptide became undetectable in serum: ≤ 5 min
[3]
  decrease of cumulative symptoms: 59%
[4]
  intercellular B7-2/CD28 synapse formation: pronounced inhibitory effect
CD28
  signaling through CD28 (IFN-γ, IL2, TNF-α secretion): inhibit signaling through CD28
